According to patent US6855872B2 (priority 1997, dated 2005):

Experiments:
Settings in all cases: Nicotiana tabacum
[1] = in vitro
[2] = in vitro; remark: listed apart in the source
[3] = in vitro; remark: listed apart in the source

CC1=C[C@H]2O[C@@H]3[C@H](O)C[C@](C)([C@@]2(CO)[C@H](O)C1=O)[C@]31CO1 [DON, deoxynivalenol]
viability [1]: 18% | viability [2]: < 10% | viability [3]: 56%
